This data set in a line: in vivo. Conditions: rat.

Molecules are shown by their SMILES.

In the case of `CCOC(=O)C(C)(C)Oc1ccc(Cl)cc1` [clofibrate, ethyl ester of 2-(p-chlorophenoxy)-isobutyric acid, reference compound], the selectivity ratio was 5.
